This assay relates to U‐87MG. Type of assay: cell-based. The settings on record: 6 h. How it is done:
Leukemia cells, U‐937, MEC‐1 cells (4 × 10^5 or 8 × 10^5 cells/sample, respectively), as well as other leukemia or suspension cell lines, were incubated in 200 μL serum‐free medium with various concentrations of the peptide for 90 min at 23–25 °C, collected by centrifugation (500 g, 5 min), washed with PBS, and analyzed for cell death. Adherent cells (6 × 10^5 mL^−1 at 70–80% confluence) were incubated with the peptide of interest in 500 μL serum‐free recommended culture medium for 3–6 h at 37 °C and 5% CO2. The cells were then trypsinized, centrifuged (1500 g, 5 min), washed with PBS, and analyzed for the desired activity. Following peptide treatment, cells were subjected to cell death analysis. Propidium iodide (PI) staining was performed by addition of PI (6.25 μg·mL^−1) to the cells and immediate analysis by the EC800 Flow cytometer Analyzer–Eclipse or the FACS caliber (Becton‐Dickinson, San Jose, CA, USA) and BD […] PRO software (BD Biosciences, San Jose, CA, USA).
Forty‐one cancerous and five noncancerous cell lines were used in this study to examine the cell‐killing activity of the VDAC1‐based peptides Antp‐LP4, Tf‐LP4, Tf‐D‐LP4, R‐Tf‐D‐LP4, N‐Ter‐Antp, and others (Figs 1, 2, 3 and Tables 1, 2, 3). For each line, cells were incubated with different peptide concentrations, and cell death was determined by PI staining and FACS analysis (Figs 1, 2, 3). In addition, for each cell line, the concentration of the peptide inducing 50% cell death (EC50) was determined (Tables 1, 2, 3).

By EC50 is commonly meant the concentration at which the effect is half-maximal. Compound `CC[C@@H](C)[C@@H](NC(=O)[C@@H](CCCCN)NC(=O)[C@H](NC(=O)[C@@H](CCC(N)=O)NC(=O)[C@@H](CCCNC(=N)N)NC(=O)[C@@H](CC(C)C)NC(=O)CNC(=O)[C@@H](Cc1ccccc1)NC(=O)CNC(=O)[C@@H](Cc1ccc(O)cc1)NC(=O)CNC(=O)[C@@H](CCCCN)NC(=O)[C@H](NC(=O)[C@H](N)Cc1ccccc1)[C@H](C)O)[C@H](C)CC)C(=O)N[C@H](Cc1c[nH]c2ccccc12)C(=O)N[C@H](Cc1ccccc1)C(=O)N[C@H](CCC(N)=O)C(=O)N[C@H](CC(N)=O)C(=O)N[C@H](CCCNC(=N)N)C(=O)N[C@H](CCCNC(=N)N)C(=O)N[C@H](CCSC)C(=O)N[C@H](CCCCN)C(=O)N[C@H](Cc1c[nH]c2ccccc12)C(=O)N[C@H](CCCCN)C(=O)N[C@H](CCCCN)C(=O)O` [D‐∆1‐18N‐Ter‐Antp] gave an EC50 of 6.7 ± 1.4 µM. In the case of `CC[C@@H](C)[C@@H](NC(=O)[C@@H](CCCCN)NC(=O)[C@H](NC(=O)[C@@H](CCC(N)=O)NC(=O)[C@@H](CCCNC(=N)N)NC(=O)[C@@H](CC(C)C)NC(=O)CNC(=O)[C@@H](Cc1ccccc1)NC(=O)CNC(=O)[C@@H](Cc1ccc(O)cc1)NC(=O)CNC(=O)[C@@H](CCCCN)NC(=O)[C@H](NC(=O)[C@@H](Cc1ccccc1)NC(=O)[C@H](N)C(C)C)[C@H](C)O)[C@H](C)CC)C(=O)N[C@H](Cc1c[nH]c2ccccc12)C(=O)N[C@H](Cc1ccccc1)C(=O)N[C@H](CCC(N)=O)C(=O)N[C@H](CC(N)=O)C(=O)N[C@H](CCCNC(=N)N)C(=O)N[C@H](CCCNC(=N)N)C(=O)N[C@H](CCSC)C(=O)N[C@H](CCCCN)C(=O)N[C@H](Cc1c[nH]c2ccccc12)C(=O)N[C@H](CCCCN)C(=O)N[C@H](CCCCN)C(=O)O` [D‐∆(1‐16)N‐Ter‐Antp] it was 7.7 µM; in that of `CC[C@H](C)[C@H](NC(=O)[C@H](CCCCN)NC(=O)[C@@H](NC(=O)[C@H](CCC(N)=O)NC(=O)[C@H](CCCNC(=N)N)NC(=O)[C@H](CC(C)C)NC(=O)CNC(=O)[C@H](Cc1ccccc1)NC(=O)CNC(=O)[C@H](Cc1ccc(O)cc1)NC(=O)CNC(=O)[C@H](CCCCN)NC(=O)[C@@H](NC(=O)[C@H](Cc1ccccc1)NC(=O)[C@@H](NC(=O)[C@H](CC(=O)O)NC(=O)[C@H](CCCNC(=N)N)NC(=O)[C@H](C)NC(=O)[C@H](CO)NC(=O)[C@H](CCCCN)NC(=O)CNC(=O)[C@H](CC(C)C)NC(=O)[C@H](CC(=O)O)NC(=O)[C@H](C)NC(=O)[C@H](Cc1ccc(O)cc1)NC(=O)[C@@H](NC(=O)[C@@H]1CCCN1C(=O)[C@@H]1CCCN1C(=O)[C@@H](NC(=O)[C@H](C)NC(=O)[C@@H](N)CCSC)C(C)C)[C@@H](C)O)C(C)C)[C@@H](C)O)[C@@H](C)CC)C(=O)N[C@@H](Cc1c[nH]c2ccccc12)C(=O)N[C@@H](Cc1ccccc1)C(=O)N[C@@H](CCC(N)=O)C(=O)N[C@@H](CC(N)=O)C(=O)N[C@@H](CCCNC(=N)N)C(=O)N[C@@H](CCCNC(=N)N)C(=O)N[C@@H](CCSC)C(=O)N[C@@H](CCCCN)C(=O)N[C@@H](Cc1c[nH]c2ccccc12)C(=O)N[C@@H](CCCCN)C(=O)N[C@@H](CCCCN)C(=O)O` [N‐Ter‐Antp], 4.5 ± 1.8 µM. The same measure for `CC[C@H](C)[C@H](NC(=O)[C@H](CCCCN)NC(=O)[C@@H](NC(=O)[C@H](CCC(N)=O)NC(=O)[C@H](CCCNC(=N)N)NC(=O)[C@H](CCCCN)NC(=O)[C@@H](NC(=O)[C@H](Cc1ccccc1)NC(=O)[C@@H](NC(=O)[C@H](CC(=O)O)NC(=O)[C@H](CCCNC(=N)N)NC(=O)[C@H](C)NC(=O)[C@H](CO)NC(=O)[C@H](CCCCN)NC(=O)CNC(=O)[C@H](CC(C)C)NC(=O)[C@H](CC(=O)O)NC(=O)[C@H](C)NC(=O)[C@H](Cc1ccc(O)cc1)NC(=O)[C@@H](NC(=O)[C@@H]1CCCN1C(=O)[C@@H]1CCCN1C(=O)[C@@H](NC(=O)[C@H](C)NC(=O)[C@@H](N)CCSC)C(C)C)[C@@H](C)O)C(C)C)[C@@H](C)O)[C@@H](C)CC)C(=O)N[C@@H](Cc1c[nH]c2ccccc12)C(=O)N[C@@H](Cc1ccccc1)C(=O)N[C@@H](CCC(N)=O)C(=O)N[C@@H](CC(N)=O)C(=O)N[C@@H](CCCNC(=N)N)C(=O)N[C@@H](CCCNC(=N)N)C(=O)N[C@@H](CCSC)C(=O)N[C@@H](CCCCN)C(=O)N[C@@H](Cc1c[nH]c2ccccc12)C(=O)N[C@@H](CCCCN)C(=O)N[C@@H](CCCCN)C(=O)O` [N‐Ter∆21‐26‐Antp]: more than 15 µM; for `CC[C@H](C)[C@H](NC(=O)[C@H](C)NC(=O)[C@H](Cc1c[nH]cn1)NC(=O)[C@H](CC(C)C)NC(=O)CNC(=O)[C@H](Cc1ccccc1)NC(=O)CNC(=O)[C@H](Cc1ccc(O)cc1)NC(=O)CNC(=O)[C@H](CCCCN)NC(=O)[C@@H](NC(=O)[C@H](Cc1ccccc1)NC(=O)[C@@H](NC(=O)[C@H](CC(=O)O)NC(=O)[C@@H](N)CCCNC(=N)N)C(C)C)[C@@H](C)O)C(=O)N[C@@H](Cc1ccc(O)cc1)C(=O)N1CCC[C@H]1C(=O)N[C@@H](CCCNC(=N)N)C(=O)N[C@@H](Cc1c[nH]cn1)C(=O)O` [Tf‐∆(1‐14)N‐Ter]: more than 15 µM; for `CC[C@H](C)[C@H](NC(=O)[C@H](CCCCN)NC(=O)[C@@H](NC(=O)[C@H](CCC(N)=O)NC(=O)[C@H](CCCNC(=N)N)NC(=O)[C@H](CCCCN)NC(=O)[C@@H](NC(=O)[C@H](Cc1ccccc1)NC(=O)[C@@H](NC(=O)[C@H](CC(=O)O)NC(=O)[C@H](CCCNC(=N)N)NC(=O)[C@H](C)NC(=O)[C@H](CO)NC(=O)[C@H](CCCCN)NC(=O)CNC(=O)[C@H](CC(C)C)NC(=O)[C@H](CC(=O)O)NC(=O)[C@H](C)NC(=O)[C@H](Cc1ccc(O)cc1)NC(=O)[C@@H](N)[C@@H](C)O)C(C)C)[C@@H](C)O)[C@@H](C)CC)C(=O)N[C@@H](Cc1c[nH]c2ccccc12)C(=O)N[C@@H](Cc1ccccc1)C(=O)N[C@@H](CCC(N)=O)C(=O)N[C@@H](CC(N)=O)C(=O)N[C@@H](CCCNC(=N)N)C(=O)N[C@@H](CCCNC(=N)N)C(=O)N[C@@H](CCSC)C(=O)N[C@@H](CCCCN)C(=O)N[C@@H](Cc1c[nH]c2ccccc12)C(=O)N[C@@H](CCCCN)C(=O)N[C@@H](CCCCN)C(=O)O` [∆(1‐4)N‐Ter∆(21‐26)‐Antp]: more than 15 µM. In turn, `CC[C@H](C)[C@H](NC(=O)[C@H](CCCCN)NC(=O)[C@@H](NC(=O)[C@H](CCC(N)=O)NC(=O)[C@H](CCCNC(=N)N)NC(=O)[C@H](CCCCN)NC(=O)[C@@H](NC(=O)[C@H](Cc1ccccc1)NC(=O)[C@@H](NC(=O)[C@H](CC(=O)O)NC(=O)[C@H](CCCNC(=N)N)NC(=O)[C@H](C)NC(=O)[C@H](CO)NC(=O)[C@H](CCCCN)NC(=O)CNC(=O)[C@@H](N)CC(C)C)C(C)C)[C@@H](C)O)[C@@H](C)CC)C(=O)N[C@@H](Cc1c[nH]c2ccccc12)C(=O)N[C@@H](Cc1ccccc1)C(=O)N[C@@H](CCC(N)=O)C(=O)N[C@@H](CC(N)=O)C(=O)N[C@@H](CCCNC(=N)N)C(=O)N[C@@H](CCCNC(=N)N)C(=O)N[C@@H](CCSC)C(=O)N[C@@H](CCCCN)C(=O)N[C@@H](Cc1c[nH]c2ccccc12)C(=O)N[C@@H](CCCCN)C(=O)N[C@@H](CCCCN)C(=O)O` [∆(1‐9)N‐Ter∆(21‐26)‐Antp] registered a 50% effective concentration (EC50) of more than 15 µM. `CC[C@H](C)[C@H](NC(=O)[C@H](C)NC(=O)[C@@H](N)Cc1c[nH]cn1)C(=O)N[C@@H](Cc1ccc(O)cc1)C(=O)N1CCC[C@H]1C(=O)N[C@@H](CCCNC(=N)N)C(=O)N[C@@H](Cc1c[nH]cn1)C(=O)N[C@@H](CCCNC(=N)N)C(=O)N[C@@H](CC(=O)O)C(=O)N[C@H](C(=O)N[C@@H](Cc1ccccc1)C(=O)N[C@H](C(=O)N[C@@H](CCCCN)C(=O)NCC(=O)N[C@@H](Cc1ccc(O)cc1)C(=O)NCC(=O)N[C@@H](Cc1ccccc1)C(=O)NCC(=O)N[C@@H](CC(C)C)C(=O)O)[C@@H](C)O)C(C)C` [∆(1‐14)N‐Ter‐Tf] gave an EC50 of more than 15 µM.
